Measured values: patent publication US8604200B2, “Diaza-spiro-{4,4}-nonane derivatives as neurokinin (NK1) antagonists” (Janssen Pharmaceutica N.V., priority 2005, dated 2013)

The chains behind the UniProt entries cited, without tags or fusion partners.
UniProt P21452, whole entry: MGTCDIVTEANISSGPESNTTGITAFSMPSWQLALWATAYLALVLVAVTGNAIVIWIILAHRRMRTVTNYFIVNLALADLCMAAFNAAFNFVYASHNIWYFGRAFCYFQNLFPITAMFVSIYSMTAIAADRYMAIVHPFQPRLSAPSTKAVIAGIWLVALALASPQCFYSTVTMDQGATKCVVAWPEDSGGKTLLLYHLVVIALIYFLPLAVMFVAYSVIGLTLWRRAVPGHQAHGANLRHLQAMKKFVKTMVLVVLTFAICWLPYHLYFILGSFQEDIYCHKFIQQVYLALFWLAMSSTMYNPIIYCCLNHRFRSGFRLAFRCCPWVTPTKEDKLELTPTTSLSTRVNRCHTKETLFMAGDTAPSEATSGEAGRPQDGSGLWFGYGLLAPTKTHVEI
UniProt P29371, whole entry: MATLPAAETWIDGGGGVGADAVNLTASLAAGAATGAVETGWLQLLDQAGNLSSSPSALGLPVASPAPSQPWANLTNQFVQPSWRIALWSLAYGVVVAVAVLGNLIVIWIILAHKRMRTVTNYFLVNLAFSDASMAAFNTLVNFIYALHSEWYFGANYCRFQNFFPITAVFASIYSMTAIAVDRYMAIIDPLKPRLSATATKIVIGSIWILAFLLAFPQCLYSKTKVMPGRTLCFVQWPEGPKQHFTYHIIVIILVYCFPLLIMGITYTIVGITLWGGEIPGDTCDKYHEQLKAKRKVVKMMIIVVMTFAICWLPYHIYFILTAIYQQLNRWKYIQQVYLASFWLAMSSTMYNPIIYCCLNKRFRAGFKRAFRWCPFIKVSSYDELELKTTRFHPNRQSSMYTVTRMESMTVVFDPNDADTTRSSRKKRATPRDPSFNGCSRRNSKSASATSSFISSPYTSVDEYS
UniProt P25103, whole entry: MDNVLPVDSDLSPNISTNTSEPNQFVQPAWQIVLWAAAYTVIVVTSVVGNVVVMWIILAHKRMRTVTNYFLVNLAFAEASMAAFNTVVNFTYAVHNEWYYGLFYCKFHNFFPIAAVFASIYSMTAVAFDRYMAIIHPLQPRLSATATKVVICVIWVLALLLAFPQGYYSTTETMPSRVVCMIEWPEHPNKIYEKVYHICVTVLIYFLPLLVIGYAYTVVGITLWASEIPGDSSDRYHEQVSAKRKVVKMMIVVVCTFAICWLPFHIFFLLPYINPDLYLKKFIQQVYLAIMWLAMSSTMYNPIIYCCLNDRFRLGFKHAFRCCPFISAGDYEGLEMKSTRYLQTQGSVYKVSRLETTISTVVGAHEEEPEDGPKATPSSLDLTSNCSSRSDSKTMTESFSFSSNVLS

How the values were obtained:
Settings in all cases: antagonist response, Ca++ transient peak
NK2 = NK2 (Homo sapiens, UniProt P21452); test: Signal transduction (ST), intracellular Ca++ FLIPR, NK2
NK3 = NK3 (Homo sapiens, UniProt P29371); test: Signal transduction (ST), intracellular Ca++ FLIPR, NK3
NK1 = NK1 (Homo sapiens, UniProt P25103); test: Signal transduction (ST), intracellular Ca++ FLIPR, NK1
Description: This test evaluates in vitro functional NK1 antagonistic activity. For the measurements of intracellular Ca^++ concentrations the cells were grown on 96-well (black wall/transparent bottom) plates from Costar for 2 days until they reached confluence. The cells were loaded with 2 μM Fluo3 in DMEM containing 0.1% BSA and 2.5 mM probenecid for 1 h at 37° C. They were washed 3× with a Krebs buffer (140 mM NaCl, 1 mM MgCl2×6H2O, 5 mM KCl, 10 mM glucose, 5 mM HEPES; 1.25 mM CaCl2; pH 7.4) containing 2.5 mM probenecid and 0.1% BSA (Ca^++-buffer). The cells were preincubated with a concentration range of antagonists for 20 min at RT and Ca^++-signals after addition of the agonists were measured in a Fluorescence Inage Plate Reader (FLIPR from Molecular Devices, Crawley, England). The peak of the Ca^++-transient was considered as the relevant signal and the mean values of corresponding wells were analysed as described below. The sigmoidal dose response curves were analysed by computerised curve-fitting, using the GraphPad Program. The EC50-value of a compound is the effective dose showing 50% of maximal effect. For mean curves the response to the agonist with the highest potency was normalised to 100%. For antagonist responses the IC50-value was calculated using non-linear regression. The last column indicates—without being limited thereto—for which use the compounds might be most suitable.

`O=C(c1cc(C(F)(F)F)cc(C(F)(F)F)c1)N1CC[C@@H](N2CCC3(CCCN3C(=O)C3CC3)C2)C[C@H]1Cc1ccccc1` (stereo partly drawn) was tested, and the “NK2 pIC50” value (NK2) was 5.2, the “NK3 pIC50” value (NK3) was <5 and the “NK1 pIC50” value (NK1) was 6.7.
